Source: ChEMBL document CHEMBL4376867 (J Med Chem, 2020)

Amino acid sequences for entries named in this document (tags omitted). A change or cut given only in a name is not applied to a line headed by its entry.
UniProt Q14164: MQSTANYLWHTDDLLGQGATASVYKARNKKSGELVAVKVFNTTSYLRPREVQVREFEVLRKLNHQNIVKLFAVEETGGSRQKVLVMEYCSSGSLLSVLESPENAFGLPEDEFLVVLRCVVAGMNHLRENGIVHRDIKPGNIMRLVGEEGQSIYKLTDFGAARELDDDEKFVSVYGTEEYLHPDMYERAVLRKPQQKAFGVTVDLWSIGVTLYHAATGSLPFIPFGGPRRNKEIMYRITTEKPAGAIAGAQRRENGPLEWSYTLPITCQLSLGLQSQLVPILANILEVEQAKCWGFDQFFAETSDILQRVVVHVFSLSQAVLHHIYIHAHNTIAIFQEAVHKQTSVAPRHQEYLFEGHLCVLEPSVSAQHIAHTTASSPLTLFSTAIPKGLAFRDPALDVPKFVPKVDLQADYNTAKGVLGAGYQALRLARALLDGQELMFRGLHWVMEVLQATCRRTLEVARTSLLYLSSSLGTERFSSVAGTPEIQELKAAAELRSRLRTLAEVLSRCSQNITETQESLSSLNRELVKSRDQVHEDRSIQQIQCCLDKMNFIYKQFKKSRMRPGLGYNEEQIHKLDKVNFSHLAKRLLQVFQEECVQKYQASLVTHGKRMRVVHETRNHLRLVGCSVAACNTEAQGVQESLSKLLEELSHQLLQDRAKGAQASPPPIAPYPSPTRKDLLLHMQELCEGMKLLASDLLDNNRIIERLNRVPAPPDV
UniProt Q9UHD2: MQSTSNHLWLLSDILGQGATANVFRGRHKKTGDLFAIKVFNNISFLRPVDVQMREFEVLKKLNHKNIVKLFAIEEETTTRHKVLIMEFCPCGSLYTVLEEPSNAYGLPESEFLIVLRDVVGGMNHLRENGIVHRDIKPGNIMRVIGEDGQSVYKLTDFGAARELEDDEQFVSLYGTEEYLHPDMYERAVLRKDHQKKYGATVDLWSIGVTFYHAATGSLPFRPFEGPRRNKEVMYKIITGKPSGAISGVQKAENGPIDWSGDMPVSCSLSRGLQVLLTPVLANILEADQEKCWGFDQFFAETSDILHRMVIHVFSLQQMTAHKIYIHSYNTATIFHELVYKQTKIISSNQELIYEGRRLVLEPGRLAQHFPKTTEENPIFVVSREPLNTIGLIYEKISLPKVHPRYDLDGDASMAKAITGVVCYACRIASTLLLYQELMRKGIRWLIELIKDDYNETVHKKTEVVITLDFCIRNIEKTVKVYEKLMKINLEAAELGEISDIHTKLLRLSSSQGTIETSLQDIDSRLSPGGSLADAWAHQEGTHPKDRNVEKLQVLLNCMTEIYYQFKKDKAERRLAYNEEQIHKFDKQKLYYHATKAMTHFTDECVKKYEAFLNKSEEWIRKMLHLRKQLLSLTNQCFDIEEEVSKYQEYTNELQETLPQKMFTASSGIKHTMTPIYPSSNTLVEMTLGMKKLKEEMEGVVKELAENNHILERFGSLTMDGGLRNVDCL

Target: IKK epsilon/TBK1 (Homo sapiens, UniProt Q14164+Q9UHD2)
Assay: Inhibition of IKKepsilon/TBK1 in human MDB-MB-231 cells transduced with lentiviral vector expressing human IRF3 assessed as decrease in poly(I:C)-stimulated IRF3 phosphorylation at S385/386 residues preincubated for 1 hr followed by poly(I:C) addition and measured after 1 hr
Format: cell-based

`Cc1cc(-c2ccc3nc(Nc4cc(CN5CCN(C(=O)CC(F)(F)F)CC5)ccn4)[nH]c3c2)ncn1` gave an IC50 of 0.773 µM.
